This is an account of results in article PMC3812274 (Biochemistry, 2013).

The test concerns the target N-terminal SNARE motif of human SNAP-25B ([…]) (human). As to the kind of experiment: assembly of an SDS-resistant complex.

B1: C-terminal SNARE motif of human SNAP-25B (residues 141-203) (domain or fragment, UniProt P60880-1 141-203, looked up)
chain: ARENEMDENLEQVSGIIGNLRHMALDMGNEIDTQNRQIDRIMEKADSNKTRIDEANQRATKML
On to B1, for which the binding result was “binds”.
